# Reference: PubChem BioAssay AID602250 (The Scripps Research Institute Molecular Screening Center, 2012)
# The entries are a selection whose mix differs from that of the whole data set. The source made the active and inactive calls.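 The calls were made as follows: active = inhibition above a per-plate cutoff, the plate's mean sample inhibition plus 3 SD (cut at about 24% in these data); inactive = the rest.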
# Experiment: nonselective inhibitors of ATP calcium response in CHO-K1, primary screen, counter-screen for M1 antagonist project, cell-based, Fluo-8 calcium fluorescence, full deck, 1536-well (AID 602250);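 also: 0% = DMSO plus EC80 ATP and 100% = DMSO alone without ATP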
# Details: CHO-K1 parental, ATP-induced calcium, Fluo-8 fluorescence; at 3 µM; hits give high values
row,SMILES,inhibition
1,CCOP(=O)(Nc1ccccc1)OCC,inactive: 10.1%
2,O=P(Nc1nc2ccc(Cl)cc2s1)(c1ccccc1)c1ccccc1,inactive: 13.3%
3,CN(C)P(=O)(N(C)C)n1c(Nc2ccccc2)nnc1-c1ccccc1,inactive: 1.5%
4,CCCC1OP(N)(=O)OCC1CC (configuration not stated),inactive: -15.7%
5,CC(=O)O[C@]1(C)C(=O)OC/C2=C/CN(C)CCC(OC(=O)[C@@](O)(C(C)O)C[C@H]1C)C2=O (some centres not stated),inactive: -8.3%
6,CC(=O)Nc1ccc([As](=O)(O)O)cc1,inactive: -4.21%
7,O=C(O)c1ccccc1[As](=O)(O)O,inactive: 0.49%
8,O=[N+]([O-])C1C(O)C(O)C([N+](=O)[O-])C(O)C1O (configuration not stated),inactive: -7.56%
9,O=C(NC(Sc1ccncn1)C(Cl)(Cl)Cl)c1ccccc1 (configuration not stated),inactive: -14.1%
10,Oc1ccccc1CNc1ccccn1,inactive: -15.3%
11,Nc1cc(N)c2nonc2c1[N+](=O)[O-],inactive: 0.61%
12,CC(C)CC(=O)NC(Sc1ccc(Cl)cc1)C(Cl)(Cl)Cl (configuration not stated),inactive: -0.38%
13,CN1CCCC(OC(=O)C(c2ccccc2)c2ccccc2)C1 (configuration not stated),inactive: -1.46%
14,Clc1ccc(Cl)c(NC2=NCC(CBr)S2)c1 (configuration not stated),inactive: -0.43%
15,Cc1ccc(OP(=O)(Nc2nccs2)Oc2ccc(C)cc2)cc1,inactive: -15.2%
16,COc1ccccc1OP(=O)(Nc1ccc(C)cn1)Oc1ccccc1OC,inactive: 13.6%
17,CC(C)[C@H]1C(=O)O[C@@H]2CCN3CC=C(COC(=O)[C@](C)(O)[C@]1(C)O)[C@H]23,inactive: -8.12%
18,Cc1ccc(N/C(=N/P(=O)(N2CCOCC2)N2CCOCC2)N2CCOCC2)cc1,inactive: 12.7%
19,CN(C(=O)Cc1ccc(Cl)c(Cl)c1)[C@H]1CCCC[C@H]1N1CCCC1,inactive: -4.69%
20,NC(=O)c1cc([N+](=O)[O-])cc([N+](=O)[O-])c1N,inactive: -7.79%
21,CC(=O)Nc1ccc(Oc2c([N+](=O)[O-])cc([N+](=O)[O-])cc2[N+](=O)[O-])cc1,inactive: -6.08%

row,SMILES,inhibition
1,CC(=O)Nc1ccc([As](=O)(O)O)c(O)c1,inactive: -18.9%
2,C[C@H]1OP(=O)(Oc2ccccc2)C[C@@H]2O[C@@H]21 (some centres not stated),inactive: -10.7%
3,C[C@@H]1C=CCP(=O)(Oc2ccccc2)O1 (some centres not stated),inactive: -8.71%
4,Cc1ccccc1CN(C)C(=O)COC(=O)C(O)(c1ccccc1)c1ccccc1,inactive: -7.26%
5,CCN(CC)CCOC(=O)C(O)(c1ccccc1)c1ccccc1,inactive: -0.23%
6,COC(=O)C1(C)COP(=O)(NCc2ccccc2)OC1 (configuration not stated),inactive: 5.24%
7,CC1C(=O)OC2CCN3CC=C(COC(=O)C(C)(O)C1(C)O)C23 (configuration not stated),inactive: 4.65%
8,CC(=O)c1ccc(N2CC2c2ccncc2)cc1 (configuration not stated),inactive: -10.6%
9,N#C/C(=C\c1ccc(N(CCBr)CCBr)cc1)C(N)=O,inactive: -11.7%
10,CC(C)(C)C(=O)NC(Sc1ccccc1)C(Cl)(Cl)Cl (configuration not stated),inactive: -10.1%
11,CCc1cc(O)c([N+](=O)[O-])c(C)c1[N+](=O)[O-],inactive: -10.2%
12,CCOc1ccc(C2=NCC(CBr)S2)cc1 (configuration not stated),inactive: -12.3%
13,O=c1c2cc([N+](=O)[O-])ccc2[nH]c2c([N+](=O)[O-])cc([N+](=O)[O-])cc12,inactive: 5.76%
14,CN(C)C(=O)Oc1noc2ccccc12,inactive: -7.42%
15,CC(NC(=O)COC(=O)C(O)(c1ccccc1)c1ccccc1)c1ccccc1 (configuration not stated),inactive: -4.99%
16,Cc1ccccc1OP(=O)(Nc1ccccn1)Oc1ccccc1C,inactive: 2.46%
17,CCN(C(=O)COC(=O)C(O)(c1ccccc1)c1ccccc1)c1c(N)n(Cc2ccccc2)c(=O)[nH]c1=O,inactive: 19.6%
18,CCC(=O)N1C2C3N(C(=O)CC)C1C1N(C(=O)CC)C(C(N1C(=O)CC)N3C(=O)CC)N2C(=O)CC,inactive: -9.47%
19,Clc1ccc(N2CCN(Cc3c[nH]c4ncccc34)CC2)cc1,inactive: -17.6%
20,O=C(OC1CN2CCC1CC2)c1ccccc1 (configuration not stated),inactive: -14.7%
21,CC(=O)NC(SC(=S)N(CC(C)C)CC(C)C)C(Cl)(Cl)Cl (configuration not stated),inactive: -1.31%

row,SMILES,inhibition
1,Cc1ccc(OP(=O)(Nc2ccccn2)Oc2ccc(C)cc2)cc1,inactive: 0.37%
2,COC(=O)c1cc2c(s1)N=C(c1ccccc1)N(C)P2(=O)N1CCOCC1 (configuration not stated),inactive: -1.07%
3,CC1C(=O)OC2CCN3CC4OC4(COC(=O)C(C)(O)C1(C)O)C23 (configuration not stated),inactive: -18.5%
4,O=P1(N(CCCl)CCCl)OCCC2CCCCN21 (configuration not stated),inactive: -8.69%
5,C=C1C(=O)OC2CCN3CC=C(COC(=O)C(C)(O)C4(CO4)C1C)C23 (configuration not stated),inactive: -5.57%
6,Cc1ccc(NP(=O)(Oc2cccc(C)c2)Oc2cccc(C)c2)nc1,inactive: -1.23%
7,c1ccc(-c2nn[nH]n2)c(-c2nn[nH]n2)c1,inactive: -14.7%
8,CCNC(=S)/N=C(\N)N[N+](=O)[O-],inactive: -6.45%
9,O=C(NC1CCS(=O)(=O)C1)NP(=S)(Oc1ccccc1)Oc1ccccc1 (configuration not stated),inactive: 4.68%
10,O=C(OC1CN2CCC1CC2)c1cccc(Cl)c1 (configuration not stated),inactive: -11.5%
11,C(Cc1nn[nH]n1)Cc1nn[nH]n1,inactive: -1.39%
12,Nc1ccc([As](=O)(O)c2ccc([N+](=O)[O-])cc2)cc1,inactive: 2.56%
13,O=[As](O)(c1ccccc1)c1ccc(O)cc1,inactive: 4.76%
14,O=[N+]([O-])c1ccc(O)c(/C=N/Nc2ccc([N+](=O)[O-])cc2[N+](=O)[O-])c1,inactive: -9.96%
15,CC(=O)NC(SC(=S)N(C)C)C(Cl)(Cl)Cl (configuration not stated),inactive: -4.72%
16,O=[N+]([O-])c1ncn(CCn2cnc([N+](=O)[O-])n2)n1,inactive: -4.29%
17,C[C@H]1OP(=O)(Oc2ccccc2)[C@H](O)[C@H](O)[C@H]1N=[N+]=[N-] (some centres not stated),inactive: -1.01%
18,O=P(Nc1nc2ccccc2s1)(c1ccccc1)c1ccccc1,inactive: 1.11%
19,O=P(Nc1ccccn1)(c1ccc(Br)cc1)c1ccc(Br)cc1,inactive: -4.24%
20,COc1ccc(N)c([N+](=O)[O-])c1[N+](=O)[O-],inactive: -7.06%
